The results in this text go back to PubChem BioAssay AID1499 (Sanford-Burnham Center for Chemical Genomics, 2009).

By UniProt entry, the sequences of proteins in these tests, tags left out.
UniProt P05107, whole entry, looked up: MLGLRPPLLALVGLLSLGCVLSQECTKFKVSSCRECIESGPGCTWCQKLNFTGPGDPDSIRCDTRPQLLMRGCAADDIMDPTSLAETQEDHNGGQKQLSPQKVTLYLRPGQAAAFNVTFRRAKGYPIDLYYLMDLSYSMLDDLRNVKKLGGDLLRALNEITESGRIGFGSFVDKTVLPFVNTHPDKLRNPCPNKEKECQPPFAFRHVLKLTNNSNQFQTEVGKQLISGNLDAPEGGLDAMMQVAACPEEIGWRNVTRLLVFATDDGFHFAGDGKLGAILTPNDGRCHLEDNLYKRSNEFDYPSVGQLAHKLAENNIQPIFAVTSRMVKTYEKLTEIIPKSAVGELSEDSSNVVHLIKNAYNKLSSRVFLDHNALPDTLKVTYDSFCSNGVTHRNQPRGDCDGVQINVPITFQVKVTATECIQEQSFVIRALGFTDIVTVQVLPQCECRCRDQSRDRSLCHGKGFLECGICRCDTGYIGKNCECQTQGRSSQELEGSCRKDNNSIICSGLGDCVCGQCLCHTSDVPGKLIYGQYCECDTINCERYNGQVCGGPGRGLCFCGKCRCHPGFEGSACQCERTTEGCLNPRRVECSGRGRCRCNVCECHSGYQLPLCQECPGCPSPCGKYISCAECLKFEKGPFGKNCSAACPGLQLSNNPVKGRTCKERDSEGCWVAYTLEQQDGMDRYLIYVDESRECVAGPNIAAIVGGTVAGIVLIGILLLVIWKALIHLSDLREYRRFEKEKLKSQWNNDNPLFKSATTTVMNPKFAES

This is a selection; strong and weak results do not stand in their true shares. Calls of active or inactive are those of the source.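 How the source made its calls: active means 10 µM primary screen giving 50% or more activity, confirmed by 40% or more on retest at that dose; inactive means the rest.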

The target in this assay is Integrin beta-2 (Homo sapiens) + Integrin alpha-M (Homo sapiens) (UniProt P05107+P11215). As to the kind of experiment: enhancers of CD11b/CD18 adhesion to fibrinogen, primary screen, K562 cells, luminescence (AID 1499). The conditions noted are these: ATPlite luminescence, at 10 µM, active compounds read high.
As to `CCOP1(=S)c2c(C)nn(CCC#N)c2N=C(c2ccccc2F)N1C` (stereo unspecified), the activation is inactive: 13.7%.
